The data set in a line: Stability in acidic environment at 25° C. (half-life of initial microbiological activity). Type of data set: physicochemical. The following applies: aqueous solution, pH 4. As for the experimental part:
The half life times of the initial activity of erythromycin A and of the macrolide antibiotics of the present invention in solution at several pH values are reported in the following table 1.
Stability in acidic environnment at 25° C. of the novel
Note: t 1/2 represents the time for reducing to one half the initial powe
of the antibiotic determined by microbiological method through diffusion
on a plate using the test stock Microccocus luteus (Sarcina lutea) ATCC

The molecule `CC[C@H]1OC(=O)[C@H](C)[C@@H](O[C@H]2C[C@@](C)(OC)[C@@H](O)[C@H](C)O2)[C@H](C)[C@@H](O[C@@H]2O[C@H](C)C[C@H](N(C)C)[C@H]2O)[C@](C)(O)C[C@@H](C)C(=O)[C@H](C)[C@@H](O)[C@]1(C)O` [Erythromycin A, reference compound] displayed a half-life of 120 min.

The half-life is the time in which the quantity being followed falls by half. High values mean slow decline, low ones rapid decline.
